For the series, the target named is prothrombin, P00734.

B1: recombinant factor Xa variant Val17→Ala (protein)
chain 1: ANSFLEEMKKGHLERECMEETCSYEEAREVFEDSDKTNEFWNKYKDGDQCETSPCQNQGKCKDGLGEYTCTCLEGFEGKNCELFTRKLCSLDNGDCDQFCHEEQNSVVCSCARGYTLADNGKACIPTGPYPCGKQTLER
chain 2: IAGGQECKDGECPWQALLINEENEGFCGGTILSEFYILTAAHCLYQAKRFKVRVGDRNTEQEEGGEAVHEVEVVIKHNRFTKETYDFDIAVLRLKTPITFRMNVAPACLPERDWAESTLMTQKTGIVSGFGRTHEKGRQSTRLKMLEVPYVDRNSCKLSSSFIITQNMFCAGYDTKQEDACQGDSGGPHVTRFKDTYFVTGIVSWGEGCARKGKYGIYTKVTAFLKWIDRSMKTRGLPKAKSHAPEVITSSPLK
Consider B1, for which the Km ± SD (µM), prothrombin cleavage by FXa assembled in prothrombinase turned out to be 0.47 µM; the Vmax/Et ± SD (nM IIa/min/nM E), prothrombin cleavage (nM IIa/min/nM E) is 887; the Vmax/Et · Km (µM^-1 · s^-1), prothrombin cleavage is 3.1e+07 M⁻¹ s⁻¹.

For the origin of these results see patent US8383386.
